The target of assay [1] is SARS-CoV-2 (2019-nCoV) Spike S1+S2 ECD-His Recombinant Protein (Severe acute respiratory syndrome coronavirus 2, UniProt P0DTC2). In kind it is biochemical.

This note sets out measurements from patent publication US20230241188A1 (priority 2020, published 2023).

With `CC(=O)N[C@@H](CS)C(=O)O` [Acetylcysteine, acetylcysteine], the “protein expression of ACE-2 receptor (western blot)” value with ACE-2 receptor is listed as “do not”. Moreover, the “protein expression of NRP-1 receptor (western blot)” value in the assay on NRP-1 receptor is “do not”. The “spike protein band on SDS-PAGE gel” value in assay [1] was “reduction in band thickness and intensity”.
